These results are taken from ChEMBL document CHEMBL5727998, “8-amino-2-oxo-1,3-diaza-spiro-[4.5]-decane derivatives” (2020).

The chains behind the UniProt entries cited, without tags or fusion partners. Where a name states a change or a piece, a line headed by the entry shows the natural chain unless it says otherwise.
UniProt P35372, whole entry, looked up: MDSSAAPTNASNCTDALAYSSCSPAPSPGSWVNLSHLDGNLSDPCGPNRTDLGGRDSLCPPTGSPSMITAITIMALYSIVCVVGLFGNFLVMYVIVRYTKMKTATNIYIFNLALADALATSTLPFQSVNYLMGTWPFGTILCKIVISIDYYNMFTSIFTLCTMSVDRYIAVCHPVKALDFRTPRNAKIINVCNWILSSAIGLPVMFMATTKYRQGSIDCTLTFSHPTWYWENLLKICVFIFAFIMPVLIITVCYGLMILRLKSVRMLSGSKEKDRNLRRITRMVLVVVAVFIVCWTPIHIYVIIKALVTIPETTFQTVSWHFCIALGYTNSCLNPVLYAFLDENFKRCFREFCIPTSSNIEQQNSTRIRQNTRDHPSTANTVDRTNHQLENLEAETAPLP
UniProt P41146: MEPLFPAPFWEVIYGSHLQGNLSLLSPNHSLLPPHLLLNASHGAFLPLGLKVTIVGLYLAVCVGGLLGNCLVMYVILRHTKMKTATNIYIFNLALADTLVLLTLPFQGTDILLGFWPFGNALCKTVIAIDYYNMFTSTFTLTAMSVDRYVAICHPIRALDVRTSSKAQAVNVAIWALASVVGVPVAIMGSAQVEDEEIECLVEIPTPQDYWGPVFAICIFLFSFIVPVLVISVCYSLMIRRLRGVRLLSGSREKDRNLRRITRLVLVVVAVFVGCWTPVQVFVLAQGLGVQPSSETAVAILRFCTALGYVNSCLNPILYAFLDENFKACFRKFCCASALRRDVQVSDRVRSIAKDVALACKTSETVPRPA

The target in one assay is Mu-type opioid receptor (Homo sapiens, UniProt P35372). Nature of the assay: Receptor Binding Assay: The hMOP receptor binding assay was performed as homogeneous SPA-assay (scintillation proximity assay) using the assay buffer 50 mM TRIS-HCl (pH 7.4) supplemented with 0.052 mg/ml bovine serum albumin (Sigma-Aldrich Co. St. Louis. Mo.). The final assay volume (250 ul/well) included 1 nM of [N-allyl-2.3-3H]naloxone as ligand (PerkinElmer Life Sciences. Inc. Boston. Mass. USA. A general note: Scintillation proximity formats need no separation of bound from free tracer.

The target of a further assay is Nociceptin receptor (Homo sapiens, UniProt P41146). Nature of the assay: Receptor Binding Assay: The hNOP receptor binding assay was performed as homogeneous SPA-assay (scintillation proximity assay) using the assay buffer 50 mM TRIS-HCl. 10 mM MgCl2. 1 mM EDTA (pH 7.4). The final assay volume (250 μl/well) included 0.5 nM of [leucyl-3H]nociceptin as ligand (PerkinElmer Life Sciences. Inc. Boston. Mass. USA). and either test compound in dilution series or 1 μM unlabell.

Where “and” joins values, the source holds several entries; their conditions need not be identical. Identical values can stand only once.

Consider `CN(C)[C@]1(c2ccccc2)CC[C@]2(CC1)CN(CCCC#N)C(=O)N2CC1CCC1`, for which the Ki at Mu-type opioid receptor came to 99.7 nM. This lies in the double-digit nanomolar range.
On to `CNC(=O)CCCN1C[C@]2(CC[C@](c3ccccc3)(N(C)C)CC2)N(CC2CCC2)C1=O`, for which the Ki at Mu-type opioid receptor stood at 40.5 nM; on Nociceptin receptor, 5.8 nM.
At Mu-type opioid receptor, `COCCOCCOCCOCCN1C[C@]2(CC[C@](c3ccccc3)(N(C)C)CC2)N(CC2CCC2)C1=O` showed a Ki of 69.8 nM.
On Mu-type opioid receptor, `CN(C)[C@]1(c2ccccc2)CC[C@]2(CC1)CN(CC(C)(C)C#N)C(=O)N2CC1CCC1` displayed an inhibition constant Ki of 84 nM.
Same read-out and setting: the same measure for `COCCN1C[C@]2(CC[C@](c3ccccc3)(N(C)C)CC2)N(CC2CCC2)C1=O`: 58 nM.
Consider `CN[C@]1(c2ccccc2)CC[C@]2(CC1)CN(CCS(C)(=O)=O)C(=O)N2CC1(O)CCC1`, for which the Ki came to 637 nM on Mu-type opioid receptor and 83 nM on Nociceptin receptor.
Compound `COCCOCCOCCOCCOCCOCCN1C[C@]2(CC[C@](c3ccccc3)(N(C)C)CC2)N(CC2CCC2)C1=O` yielded a Ki on Mu-type opioid receptor of 755 nM. This counts as sub-micromolar.
In the case of `COCCOCCOCCN1C[C@]2(CC[C@](c3ccccc3)(N(C)C)CC2)N(CC2CCC2)C1=O`, the Ki came to 39.5 nM at Mu-type opioid receptor and 7.7 nM at Nociceptin receptor.
On Mu-type opioid receptor, `COCCOCCOCCOCCOCCOCCOCCN1C[C@]2(CC[C@](c3ccccc3)(N(C)C)CC2)N(CC2CCC2)C1=O` showed an inhibitory constant (Ki) of 305 nM.
On to `CN(C)[C@]1(c2ccccc2)CC[C@]2(CC1)CN(CCS(C)(=O)=O)C(=O)N2CC1(O)CCC1`, for which the Ki was determined as 210 nM at Mu-type opioid receptor and 13 nM at Nociceptin receptor.
In the same order, the values of `CN[C@]1(c2ccccc2)CC[C@]2(CC1)CN(CCS(C)(=O)=O)C(=O)N2CC1CCC1` are 87 nM and 9.5 nM.
In turn, `CN(C)[C@]1(c2ccccc2)CC[C@]2(CC1)CN(CCS(C)(=O)=O)C(=O)N2CC1CCC1` had a Ki at Mu-type opioid receptor of 37.4 nM.
On Nociceptin receptor, `COCCOCCOCCOCCOCCN1C[C@]2(CC[C@](c3ccccc3)(N(C)C)CC2)N(CC2CCC2)C1=O` returned a Ki of 19 nM.
Same read-out and setting: the figure for `COCCOCCOCCOCCOCCOCCOCCOCCN1C[C@]2(CC[C@](c3ccccc3)(N(C)C)CC2)N(CC2CCC2)C1=O` is 45 nM.
In the case of `COC(=O)CCCN1C[C@]2(CC[C@](c3ccccc3)(N(C)C)CC2)N(CC2CCC2)C1=O`, the Ki is 1430 nM and 8530 nM at Mu-type opioid receptor; 119 nM and 345 nM on Nociceptin receptor.

As a reminder, the Ki is a dissociation constant, usually derived from enzyme kinetics or from competition with a known ligand. Read a high Ki as weaker binding.
